Assay results taken from US20210330661A1 (China Medical University, priority 2020, published 2021).
Several values for one entry are separate records, joined by “and”; a condition that tells them apart may be missing. Identical values can stand only once.

Molecular target: SARS-CoV-2 M^pro (Severe acute respiratory syndrome coronavirus 2, UniProt P0DTD1)
Assay type: binding

How did the “Tm of SARS-CoV-2 Mpro” value turn out when CCN(CCO)CCCC(C)Nc1ccnc2cc(Cl)ccc12 (stereo not shown) [hydroxychloroquine] was run?
Its value is 51.1 °C and 51.2 °C.
